Data taken from article PMC8129907, “Vancomycin bone and tissue concentrations following tibial intraosseous administration – evaluated in a porcine model” (Journal of Bone and Joint Infection, 2021).

Settings: tibial cancellous bone adjacent to cannula, pig, 500 mg intraosseous, no tourniquet, microdialysis, 12 h, mean (SD), n = 8

For `CN[C@H](CC(C)C)C(=O)N[C@H]1C(=O)N[C@@H](CC(N)=O)C(=O)N[C@H]2C(=O)N[C@H]3C(=O)N[C@H](C(=O)N[C@H](C(=O)O)c4cc(O)cc(O)c4-c4cc3ccc4O)[C@H](O)c3ccc(c(Cl)c3)Oc3cc2cc(c3O[C@@H]2O[C@H](CO)[C@@H](O)[C@H](O)[C@H]2O[C@H]2C[C@](C)(N)[C@H](O)[C@H](C)O2)Oc2ccc(cc2Cl)[C@H]1O` [vancomycin], which “Cmax (peak drug concentration)” value is on record?
Its value is 1236 (1883) µg/mL.
